Assay [1] deals with T1, Vitamin D3 receptor (Homo sapiens) (UniProt P11473).
T1 sequence (whole entry): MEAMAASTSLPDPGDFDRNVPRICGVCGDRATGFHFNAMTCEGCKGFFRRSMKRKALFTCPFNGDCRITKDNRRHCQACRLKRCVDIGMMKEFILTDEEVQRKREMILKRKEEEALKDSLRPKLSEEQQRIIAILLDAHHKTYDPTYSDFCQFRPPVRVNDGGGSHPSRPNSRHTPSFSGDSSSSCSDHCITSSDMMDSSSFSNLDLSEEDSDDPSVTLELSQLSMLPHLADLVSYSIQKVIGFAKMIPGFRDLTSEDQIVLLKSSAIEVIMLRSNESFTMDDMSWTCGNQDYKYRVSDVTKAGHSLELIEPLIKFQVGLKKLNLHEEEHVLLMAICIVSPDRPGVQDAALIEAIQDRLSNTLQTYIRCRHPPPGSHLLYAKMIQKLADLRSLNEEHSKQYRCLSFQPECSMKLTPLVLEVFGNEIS
The assay can be described thus: Agonist activity at VP16 tagged-VDR-LBD (unknown origin) expressed in HEK293T cells assessed as SRC1 coactivator peptide recruitment after 16 hrs by luciferase reporter gene based two hybrid assay relative to 1,25-dihydroxyvitamin D3. It is filed as cell-based. As to conditions: HEK-293T. In outline:
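HEK293T cells were lipid-transfected with VP16-VDR-LBD, SRC1-GAL4 and 4×UAS luciferase reporter plasmids for 16 h. Cells were then plated at 15,000/well on matrigel in phenol-red-free DMEM with 2% charcoal-treated FBS. Three experiments in quadruplicate; nonlinear regression.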
For orientation: A reporter such as luciferase makes a cellular process visible.

The target of assay [2] is T1, Vitamin D3 receptor (Homo sapiens). The assay can be described thus: Agonist activity at VDR-LBD in human DU145 cells assessed as CYP24A1 expression at 7.5 uM after 18 hrs by qRT-PCR method relative to 1alpha,25-dihydroxyvitamin D3. In kind it is cell-based. The note with it: DU-145. In outline: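 Non-transfected DU145 cells were grown in DMEM with 10% heat-inactivated FBS and plated on matrigel-coated 6-well plates overnight at 37°C. Total RNA was isolated and CYP24A1 fold change was measured by real-time RT-PCR (Ct method). Experiments were run in triplicate; significance by Dunnett ANOVA.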
On the technique in general: Quantitative PCR measures a nucleic acid by following its amplification.

With `CC(=O)O[C@@H]1CC[C@@]2(C)[C@H](CC[C@@H]3[C@@H]2CC[C@]2(C)[C@@H]([C@H](C)CCC(=O)O)CC[C@@H]32)C1`, in assay [1], the Efficacy is 94%. In addition, the Activity in assay [2] was 24%.

For the origin of these results see ChEMBL document CHEMBL3763103, “Synthesis and evaluation of vitamin D receptor-mediated activities of cholesterol and vitamin D metabolites” (Eur J Med Chem, 2016).
